Consider one compound from publication PMC11237774, “On-target, dual aminopeptidase inhibition provides cross-species antimalarial activity” (mBio, 2024).

By UniProt entry, the sequences of proteins in these tests, tags left out. Where a name states a change or a piece, a line headed by the entry shows the natural chain unless it says otherwise.
UniProt O96935: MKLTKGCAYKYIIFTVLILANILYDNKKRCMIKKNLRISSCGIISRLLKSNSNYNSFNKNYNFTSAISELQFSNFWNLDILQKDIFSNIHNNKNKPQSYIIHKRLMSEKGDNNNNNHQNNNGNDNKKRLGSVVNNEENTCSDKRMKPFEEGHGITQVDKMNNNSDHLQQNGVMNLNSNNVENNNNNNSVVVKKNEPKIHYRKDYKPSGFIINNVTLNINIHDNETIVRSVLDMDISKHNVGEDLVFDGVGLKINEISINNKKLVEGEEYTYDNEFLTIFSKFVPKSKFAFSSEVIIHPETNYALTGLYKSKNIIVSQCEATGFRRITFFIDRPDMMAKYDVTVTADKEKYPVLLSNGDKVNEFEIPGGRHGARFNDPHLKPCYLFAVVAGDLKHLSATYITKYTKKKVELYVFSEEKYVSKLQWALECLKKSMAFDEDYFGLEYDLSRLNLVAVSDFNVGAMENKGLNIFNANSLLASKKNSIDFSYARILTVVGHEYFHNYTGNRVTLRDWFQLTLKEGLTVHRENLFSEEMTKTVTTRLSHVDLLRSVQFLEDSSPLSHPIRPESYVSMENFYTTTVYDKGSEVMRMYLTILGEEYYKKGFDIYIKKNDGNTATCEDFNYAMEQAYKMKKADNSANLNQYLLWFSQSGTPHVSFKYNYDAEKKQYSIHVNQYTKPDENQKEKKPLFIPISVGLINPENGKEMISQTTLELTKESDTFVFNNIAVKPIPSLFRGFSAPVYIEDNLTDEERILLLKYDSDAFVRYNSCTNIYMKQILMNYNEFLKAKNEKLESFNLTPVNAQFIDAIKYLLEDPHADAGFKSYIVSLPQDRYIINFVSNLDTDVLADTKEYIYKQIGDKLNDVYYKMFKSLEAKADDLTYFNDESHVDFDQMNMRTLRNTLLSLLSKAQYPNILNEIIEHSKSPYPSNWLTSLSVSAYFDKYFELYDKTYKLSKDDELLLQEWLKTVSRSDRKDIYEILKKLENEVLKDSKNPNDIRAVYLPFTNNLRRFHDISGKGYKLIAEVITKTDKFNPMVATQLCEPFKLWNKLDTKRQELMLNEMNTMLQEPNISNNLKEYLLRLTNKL
UniProt Q8IL11: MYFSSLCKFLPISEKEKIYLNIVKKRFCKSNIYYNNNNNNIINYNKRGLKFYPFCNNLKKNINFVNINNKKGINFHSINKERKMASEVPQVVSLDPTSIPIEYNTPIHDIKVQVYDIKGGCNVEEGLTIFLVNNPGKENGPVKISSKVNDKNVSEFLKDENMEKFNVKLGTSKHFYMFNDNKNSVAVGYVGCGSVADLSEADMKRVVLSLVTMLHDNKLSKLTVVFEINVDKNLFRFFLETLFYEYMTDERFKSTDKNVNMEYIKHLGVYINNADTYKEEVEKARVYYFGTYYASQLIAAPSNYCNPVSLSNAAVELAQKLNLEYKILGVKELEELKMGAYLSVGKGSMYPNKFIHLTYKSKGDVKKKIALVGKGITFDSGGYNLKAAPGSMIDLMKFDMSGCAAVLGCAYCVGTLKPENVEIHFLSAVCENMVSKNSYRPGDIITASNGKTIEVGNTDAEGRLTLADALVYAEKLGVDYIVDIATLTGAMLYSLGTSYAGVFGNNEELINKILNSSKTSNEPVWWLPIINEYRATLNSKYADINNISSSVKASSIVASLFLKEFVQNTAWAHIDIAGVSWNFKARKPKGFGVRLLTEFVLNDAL

Series [1] has as its system human M1 homologs vs Plasmodium M1. The following applies: human homologs LTA4H, ERAP1/2 vs Plasmodium. As to the method:
Inhibition of aminopeptidase activity assays were performed against nine aminopeptidases: the M1 alanyl and M17 leucyl aminopeptidases from P. falciparum (PfA-M1; PfA-M17), P. vivax (Pv-M1; Pv-M17), and P. berghei (Pb-M1; Pb-M17), and three human M1 homologs: LTA4H (OriGene TP307617), ERAP1 (OriGene TP314469), and ERAP2 (Creative BioMart ERAP2-304H). The Plasmodium enzymes were produced recombinantly as described previously ([16], [17]), and the human recombinant enzymes were purchased from commercial suppliers as indicated.
Reactions were measured at 37°C in white 384-well plates in a total volume of 25 or 50 µL using a spectrofluorimeter (BMG FLUOstar) with excitation at 355 nm and emission at 460 nm. The fluorescence signal was continuously monitored until a final steady-state velocity, v, was obtained. Inhibition constants were calculated from biological triplicates made from three different protein preparations.
Substrate concentrations were selected to allow sensitive detection of enzyme activity while not exceeding the Km for each enzyme. […] Where possible, the Ki values were calculated by plotting the initial rates versus inhibitor concentration and fitting to the Morrison equation for tight-binding inhibitors in GraphPad Prism (V.8.4.1; non-linear regression method).

A further series deals with 7G8. It is filed as cell-based, P. falciparum. How it is done:
(§1) In vitro testing was performed using the modified [^3H]hypoxanthine incorporation assay, as previously reported ([34]). The specific mutations in the field isolates (see Table 1, top six strains) have been previously described ([35], [36]), as have the specific mutations in the laboratory-selected Dd2 parasites (see Table 1, remaining five strains) ([36]).

Another series relates to Cam3.1 (MRA1240). It is filed as cell-based, P. falciparum. How it is done:
as §1

For another series, the system named is Dd2 DDD107498. It is filed as cell-based, P. falciparum. As to the method:
as §1

For a further series, the system named is Dd2 DSM265. It is filed as cell-based, P. falciparum. As to the method:
as §1

The test system of another series is Dd2 ELQ300. Type of series: cell-based, P. falciparum. As to the method:
as §1

Another series concerns Dd2 GNF156. It is filed as cell-based, P. falciparum. As to the method:
as §1

For the next series, the system named is Dd2 MMV390048. It is filed as cell-based, P. falciparum. How it is done:
as §1

The subject of the next series is Dd2. Type of series: cell-based, P. falciparum. How it is done:
as §1

A further series deals with K1. Type of series: cell-based, P. falciparum. As to the method: as §1
The subject of a further series is NF54. It is filed as cell-based, P. falciparum. As to the method: as §1
For a further series, the system named is TM90C2B. Type of series: cell-based, P. falciparum. As to the method:
as §1

The target of the next series is T1, PfA-M1 (PF3D7_1311800) (Plasmodium falciparum, UniProt O96935).
T1 construct: parasite lysate was separated into technical replicates; endogenous in cells; host or cells: P. falciparum parasite lysate
The experiment in a line: Thermal proteomics profiling. It is filed as binding, P. falciparum. The following applies: 60°C thermal challenge.

The target of another series is T2, PfA-M17 (Pf3D7_1446200) (Plasmodium falciparum, UniProt Q8IL11).
T2 construct: parasite lysate was separated into technical replicates; endogenous in cells; host or cells: P. falciparum parasite lysate
As to the kind of experiment: Thermal proteomics profiling. It is filed as binding, P. falciparum. The following applies: 60°C thermal challenge.

Another series concerns HEK293 cells. Also on record: method as in PMID 30537832. To be noted: at 10 µM; cited from earlier work.

As for `CC(C)(C)CC(=O)NC(C(=O)NO)c1ccc(-c2cc(F)c(F)c(F)c2)cc1` (stereo not drawn) [MMV1557817, N-(2-(hydroxyamino)−2-oxo-1-(3′,4′,5′-trifluoro-[1,1′-biphenyl]-4-yl)ethyl)-3,3-dimethylbutanamide], the “selectivity index between human and Plasmodium target” value in series [1] was 50–100. The “Fold shift EC50 relative to NF54” value in the series with 7G8 worked out at 1.3; with Cam3.1 (MRA1240), 1.1; in the series with Dd2 it was 1.1; in the series with K1, 1.2; with NF54, 1.0; with TM90C2B it was 1.0. The “Fold shift EC50 relative to Dd2” value worked out at 1.0 in the series with Dd2 DDD107498; 0.9 with Dd2 DSM265; 1.0 in the series on Dd2 ELQ300; 1.0 in the series with Dd2 GNF156; 0.8 in the series with Dd2 MMV390048; 1.0 in the series on Dd2. Also, the “fold stabilization compared with 0 nM” value at PfA-M1 (PF3D7_1311800) (300 nM) was determined as 1.36 fold; at PfA-M1 (PF3D7_1311800) (1,200 nM), 4.33 fold; at PfA-M17 (Pf3D7_1446200) (300 nM), 1.28 fold; on PfA-M17 (Pf3D7_1446200) (1,200 nM), 1.26 fold. The selectivity index in the series with HEK293 cells is recorded as ≥ 1,370.
